Assay results published in patent publication US12091425B2 (AMGEN INC., priority 2016, dated 2024).

Protein sequences, listed by entry. Tags and fused reporters are not part of them. Residues count along the entry.
UniProt Q07820, 171-327 limits assumed: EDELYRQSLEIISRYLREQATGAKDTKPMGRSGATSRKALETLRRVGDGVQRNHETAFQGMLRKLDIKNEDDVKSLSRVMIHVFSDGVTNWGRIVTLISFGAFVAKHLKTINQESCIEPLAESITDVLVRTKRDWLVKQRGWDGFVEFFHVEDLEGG

System: OPM-2 human multiple myeloma cell line
Assay: Cell Viability Assay (OPM-2 10 FBS)
Assay type: cell-based
Conditions: read-out: OPM-2 10% FBS, OPM-2 cells, 16 h, CellTiter-Glo

SMILES	IC50 [nM]
COC1C/C=C/[C@H](O)[C@@H]2CC[C@H]2CN2C[C@@]3(CCCc4cc(Cl)ccc43)COc3ccc(cc32)C(=O)NS(=O)(=O)C1CC1CCC1 (single isomer, unassigned) [Example 640]	5400
C[C@H]1CC=C[C@H](O)[C@@H]2CC[C@H]2CN2C[C@@]3(CCCc4cc(Cl)ccc43)COc3ccc(cc32)C(=O)NS(=O)(=O)C1CC(F)(F)F (single isomer, unassigned) [Example 661]	2760
C[C@H]1CC=C[C@H](OCCN2CCOCC2)[C@@H]2CC[C@H]2CN2C[C@@]3(CCCc4cc(Cl)ccc43)COc3ccc(cc32)C(=O)NS(=O)(=O)C1CC(F)(F)F (stereo partly drawn)	237
COCC1[C@@H](C)CC=C[C@H](O)[C@@H]2CC[C@H]2CN2C[C@@]3(CCCc4cc(Cl)ccc43)COc3ccc(cc32)C(=O)NS1(=O)=O (single isomer, unassigned)	701
CC1CC[C@H](C)S(=O)(=O)NC(=O)c2ccc3c(c2)N(C[C@@H]2CC[C@H]2C(O)C1)C[C@@]1(CCCc2cc(Cl)ccc21)CO3 (single isomer, unassigned) [Example 266]	1070
O=C1NS(=O)(=O)C(CC2CC2)CCC=C[C@H](O)[C@@H]2CC[C@H]2CN2C[C@@]3(CCCc4cc(Cl)ccc43)COc3ccc1cc32 (single isomer, unassigned) [Example 157]	480
O=C1NS(=O)(=O)CCOC2CCOC(C2)[C@@H]2CC[C@H]2CN2C[C@@]3(CCCc4cc(Cl)ccc43)COc3ccc1cc32 (single isomer, unassigned) [Example 838]	1220
CC1CC(O)[C@@H]2CC[C@H]2CN2C[C@@]3(CCCc4cc(Cl)ccc43)COc3ccc(cc32)C(=O)NS(=O)(=O)[C@H](C)[C@@H](C)C1 (single isomer, unassigned)	3340
C/C1=C\C(O)[C@@H]2CC[C@H]2CN2C[C@@]3(CCCc4cc(Cl)ccc43)COc3ccc(cc32)C(=O)NS(=O)(=O)CCC1 (single isomer, unassigned) [Example 239]	3820

Same assay, conditions: read-out: OPM-2 10% FBS, OPM-2 cells, 16 h incubation, CellTiter-Glo

SMILES	IC50 [nM]
CC1/C=C/[C@@H](O)[C@@H]2CC[C@H]2CN2C[C@@]3(CCCc4cc(Cl)ccc43)COc3ccc(cc32)C(=O)NS(=O)(=O)[C@H](C)[C@H]1C (single isomer, unassigned)	1500
CCC1C(C)C(C)/C=C/[C@H](OC)[C@@H]2CC[C@H]2CN2C[C@@]3(CCCc4cc(Cl)ccc43)COc3ccc(cc32)C(=O)NS1(=O)=O (single isomer, unassigned)	628

Target: Mcl-1/Bim interaction, recombinant human Mcl-1 (171-327) (Homo sapiens, UniProt Q07820)
Assay: Cell free Mcl-1: Bim Affinity Assay (Mcl-1 HTRF)
Assay type: binding
Conditions: read-out: Mcl-1 HTRF; TR-FRET, 0.1 nM Mcl-1 (171-327), 0.05 nM biotin-Bim (51-76)

SMILES	IC50 [nM]
CC12CCC1CN1C[C@@]3(CCCc4cc(Cl)ccc43)COc3ccc(cc31)C(=O)NS(=O)(=O)CCCCCC2O (single isomer, unassigned)	28.7
CC1CC[C@@H](C)S(=O)(=O)NC(=O)c2ccc3c(c2)N(C[C@@H]2CC[C@H]2C(O)C1)C[C@@]1(CCCc2cc(Cl)ccc21)CO3 (single isomer, unassigned) [Example 263]	8.42
COCC1[C@@H](C)CC=C[C@H](O)[C@@H]2CC[C@H]2CN2C[C@@]3(CCCc4cc(Cl)ccc43)COc3ccc(cc32)C(=O)NS1(=O)=O (single isomer, unassigned)	0.54
CC1/C=C/[C@@H](O)[C@@H]2CC[C@H]2CN2C[C@@]3(CCCc4cc(Cl)ccc43)COc3ccc(cc32)C(=O)NS(=O)(=O)[C@H](C)[C@H]1C (single isomer, unassigned)	1.68
COC1C2CCCC(C2)S(=O)(=O)NC(=O)c2ccc3c(c2)N(C[C@@H]2CC[C@@H]12)C[C@@]1(CCCc2cc(Cl)ccc21)CO3 (single isomer, unassigned)	42.1
CO[C@H]1/C=C/C(CO)CC(C)S(=O)(=O)NC(=O)c2ccc3c(c2)N(C[C@@H]2CC[C@H]21)C[C@@]1(CCCc2cc(Cl)ccc21)CO3 (single isomer, unassigned)	5.79
O=C1NS(=O)(=O)CCCCCSC2CCC2CN2C[C@@]3(CCCc4cc(Cl)ccc43)COc3ccc1cc32 (stereo partly drawn)	5.72
CC1CC(=O)NC[C@@H]2CC[C@H]2CN2C[C@@]3(CCCc4cc(Cl)ccc43)COc3ccc(cc32)C(=O)NS(=O)(=O)C1C (stereo partly drawn)	5.38
C[C@@H]1C/C=C/C(O)C2(C)CCC2CN2C[C@@]3(CCCc4cc(Cl)ccc43)COc3ccc(cc32)C(=O)NS1(=O)=O (single isomer, unassigned)	8.64
O=C1NS(=O)(=O)C2COCC2C/C=C/[C@H](O)[C@@H]2CC[C@H]2CN2C[C@@]3(CCCc4cc(Cl)ccc43)COc3ccc1cc32 (single isomer, unassigned) [Example 1031]	6.58
COC(=O)C1CCN(C(=O)C2CCC=C[C@H](O)[C@@H]3CC[C@H]3CN3C[C@@]4(CCCc5cc(Cl)ccc54)COc4ccc(cc43)C(=O)NS2(=O)=O)CC1 (single isomer, unassigned)	0.423
CC[C@@H]1CC/C=C/C(O)C2(C)CCC2CN2C[C@@]3(CCCc4cc(Cl)ccc43)COc3ccc(cc32)C(=O)NS1(=O)=O (single isomer, unassigned) [Example 119]	24.4
C[C@@H]1[C@@H](C)CC(N(C)C)CC(O)[C@@H]2CC[C@H]2CN2C[C@@]3(CCCc4cc(Cl)ccc43)COc3ccc(cc32)C(=O)NS1(=O)=O (single isomer, unassigned) [Example 249]	28.4
CC1CC[C@@H](C)S(=O)(=O)NC(=O)c2ccc3c(c2)N(C[C@@H]2CC[C@H]2C(O)C1)C[C@@]1(CCCc2cc(Cl)ccc21)CO3 (single isomer, unassigned) [Example 261]	33.9
CC[C@@H]1CC/C=C/C(O)C2(C)CCC2CN2C[C@@]3(CCCc4cc(Cl)ccc43)COc3ccc(cc32)C(=O)NS1(=O)=O (single isomer, unassigned) [Example 120]	0.927
O=C1NS(=O)(=O)C2COCC2C/C=C/[C@H](O)[C@@H]2CC[C@H]2CN2C[C@@]3(CCCc4cc(Cl)ccc43)COc3ccc1cc32 (single isomer, unassigned) [Example 1028]	3.48

Same assay, conditions: read-out: Mcl-1 HTRF; cell free Mcl-1:Bim TR-FRET, recombinant human Mcl-1 (171-327)

SMILES	IC50 [nM]
COC1C/C=C/[C@H](O)[C@@H]2CC[C@H]2CN2C[C@@]3(CCCc4cc(Cl)ccc43)COc3ccc(cc32)C(=O)NS(=O)(=O)C1CC1CCC1 (single isomer, unassigned) [Example 640]	20.9
C[C@H]1CC=C[C@H](O)[C@@H]2CC[C@H]2CN2C[C@@]3(CCCc4cc(Cl)ccc43)COc3ccc(cc32)C(=O)NS(=O)(=O)C1CC(F)(F)F (single isomer, unassigned) [Example 661]	2.51
C[C@H]1CC=C[C@H](OCCN2CCOCC2)[C@@H]2CC[C@H]2CN2C[C@@]3(CCCc4cc(Cl)ccc43)COc3ccc(cc32)C(=O)NS(=O)(=O)C1CC(F)(F)F (stereo partly drawn)	1.37
CC1COCCC(O)[C@@H]2CC[C@H]2CN2C[C@@]3(CCCc4cc(Cl)ccc43)COc3ccc(cc32)C(=O)NS1(=O)=O (single isomer, unassigned)	2.75
O=C1NS(=O)(=O)C2CC2CCC[C@H](O)[C@@H]2CC[C@H]2CN2C[C@@]3(CCCc4cc(Cl)ccc43)COc3ccc1cc32 (stereo partly drawn)	11.5
COC[C@H](CC1[C@@H](C)C/C=C/[C@H](O)[C@@H]2CC[C@H]2CN2C[C@@]3(CCCc4cc(Cl)ccc43)COc3ccc(cc32)C(=O)NS1(=O)=O)OC(=O)c1ccccc1 (single isomer, unassigned)	2.06
COCC1(C)C/C=C/[C@H](O)[C@@H]2CC[C@H]2CN2C[C@@]3(CCCc4cc(Cl)ccc43)COc3ccc(cc32)C(=O)NS1(=O)=O (single isomer, unassigned)	2.94
CC1C(O)C/C=C/C[C@@H]2CC[C@H]2CN2C[C@@]3(CCCc4cc(Cl)ccc43)COc3ccc(cc32)C(=O)NS1(=O)=O (single isomer, unassigned)	10.4
O=C1NS(=O)(=O)C/C=C\CC(O)C[C@@H]2CC[C@H]2CN2C[C@@]3(CCCc4cc(Cl)ccc43)COc3ccc1cc32 (single isomer, unassigned)	8.08
O=C1NS(=O)(=O)C/C=C\C2(O)CCOC(C2)[C@@H]2CC[C@H]2CN2C[C@@]3(CCCc4cc(Cl)ccc43)COc3ccc1cc32 (single isomer, unassigned)	1.99
O=C1NS(=O)(=O)CC2CC2/C=C/[C@H](O)[C@@H]2CC[C@H]2CN2C[C@@]3(CCCc4cc(Cl)ccc43)COc3ccc1cc32 (single isomer, unassigned) [Example 801]	1.93
CCC1/C=C/C[C@H](O)[C@@H]2CC[C@H]2CN2C[C@@]3(CCCc4cc(Cl)ccc43)COc3ccc(cc32)C(=O)NS1(=O)=O (single isomer, unassigned)	6.55
